Measured values published in patent US20230183239A1, “ECTONUCLEOTIDE PYROPHOSPHATASE-PHOSPHODIESTERASE 1 (ENPP-1) INHIBITORS AND USES THEREOF” (AbbVie Inc., priority 2017, published 2023).

Amino acid sequences for entries named in this document (tags omitted).
UniProt P22413, whole entry: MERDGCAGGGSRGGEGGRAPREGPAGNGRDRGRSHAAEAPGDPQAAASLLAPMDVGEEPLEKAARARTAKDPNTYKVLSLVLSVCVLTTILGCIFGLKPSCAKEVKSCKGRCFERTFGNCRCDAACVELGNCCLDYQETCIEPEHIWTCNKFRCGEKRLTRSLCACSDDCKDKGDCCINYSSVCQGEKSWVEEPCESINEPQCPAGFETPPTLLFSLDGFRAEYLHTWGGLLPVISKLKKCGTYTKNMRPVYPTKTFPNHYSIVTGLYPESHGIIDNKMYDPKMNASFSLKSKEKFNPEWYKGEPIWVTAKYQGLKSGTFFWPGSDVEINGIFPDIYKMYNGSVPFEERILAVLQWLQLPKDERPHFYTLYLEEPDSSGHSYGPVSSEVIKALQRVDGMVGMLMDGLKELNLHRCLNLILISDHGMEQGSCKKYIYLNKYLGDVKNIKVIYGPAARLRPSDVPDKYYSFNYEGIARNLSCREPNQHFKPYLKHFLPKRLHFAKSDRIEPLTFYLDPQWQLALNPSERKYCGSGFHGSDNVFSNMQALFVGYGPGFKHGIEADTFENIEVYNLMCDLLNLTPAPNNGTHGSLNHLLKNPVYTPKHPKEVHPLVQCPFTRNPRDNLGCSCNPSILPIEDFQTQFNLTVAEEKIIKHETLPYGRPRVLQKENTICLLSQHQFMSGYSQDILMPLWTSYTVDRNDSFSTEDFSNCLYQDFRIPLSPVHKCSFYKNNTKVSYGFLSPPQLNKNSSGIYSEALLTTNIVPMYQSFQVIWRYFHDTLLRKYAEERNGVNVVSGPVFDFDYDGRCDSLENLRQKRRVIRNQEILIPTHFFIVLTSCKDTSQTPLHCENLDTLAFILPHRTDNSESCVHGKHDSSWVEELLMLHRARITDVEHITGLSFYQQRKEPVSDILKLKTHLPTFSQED

Columns and labels:
Type in all cases: biochemical
ENPP1 [1] = biological target: T1, ENPP1 (Homo sapiens, UniProt P22413); assay: ENPP1 enzyme assay with AMP-pNP substrate (hydrolysis of ATP analog); settings: read-out: ENPP1 Inhibition _AMP-pNP: Ki, Ki from IC50 by Cheng-Prusoff
ENPP1 [2] = biological target: T1, ENPP1; assay: Indirect quantitation of 2',3'-cGAMP hydrolysis (AMP-Glo Assay kit); settings: read-out: ENPP1 Inhibition -cGAMP: Ki; cGAMP substrate; Ki from IC50 by Cheng-Prusoff
ENPP1 [3] = biological target: T1, ENPP1; assay: Substrate selectivity ratio, inhibition of cGAMP hydrolysis versus ATP hydrolysis

SMILES: COc1cc2nccc(-c3ccc(CN(C4CC4)S(N)(=O)=O)cc3)c2cc1OC
- Ki (ENPP1 [1]): 100 to 1000 nM
- Ki (ENPP1 [2]): < 100 nM
- Substrate Selectivity: Ki AMP-pNP/Ki cGAMP (ENPP1 [3]): > 37
